Molecules are shown by their SMILES.

Series [1] in a line: Plasma concentration time-course after single dose in NT1 model mice. The note with it: for Cmax: mice.
The test system of series [2] is OX2R. The series is described as follows: EEG analysis of sleep stages during infusion by osmotic pump in orexin-tTA;TetO DTA mice.
Series [3] deals with OX2R. The series is described as follows: EEG/EMG recording of sleep/wakefulness after single dose in NT1 model mice (orexin-tTA;TetO DTA). The note with it: ZT5.
Series [4] relates to OX2R. The series can be described thus: DREM (direct transitions from wakefulness to REM sleep, murine analog of cataplexy) during infusion by osmotic pump.
A short description of series [5]: Plasma concentration during infusion by osmotic pump.
The test system of series [6] is OX2R. Conditions: cited from earlier work.
The conditions of series [7]: 11.2 mg, individuals with NT1; cited from earlier work.
The subject of series [8] is OX2R. Conditions: OX2R-expressed recombinant cells; cited from earlier work.
The test system of series [9] is OX2R. Conditions: OX2R-expressed recombinant cells; cited from earlier work. This is another data set of the same source.
In series [10] the test system is OX2R. The series can be described thus: Maintenance of Wakefulness Test (MWT40) in individuals with NT1, Phase I single rising dose study. The note with it: around one-third of the arousal-promoting concentration (20 ng/mL).
Series [11] deals with OX2R. The series is described as follows: EEG/EMG recording of wakefulness with plasma concentration, determination of arousal-promoting plasma concentration in NT1 model mice (orexin/ataxin-3). The note with it: for duration of potent arousal (maintenance of wakefulness for more than 75% in 10 min-bins): 1 mg/kg s.c.
Series [12] can be described thus: Plasma concentration time-course in cynomolgus monkeys.
Series [13] has as its system OX2R. The series can be described thus: EEG/EMG recording of sleep/wakefulness in cynomolgus monkeys. The note with it: ZT12.
[14] abbreviates: at or below maximum non-awakening plasma concentration, day 28.
Setting [15] is: at or below maximum non-awakening plasma concentration, day 28, vs vehicle-treated.
Setting [16] is: at or below maximum non-awakening plasma concentration, day 14.
Where [17] appears, read: at or below maximum non-awakening plasma concentration, day 14, vs vehicle-treated.
Where [18] appears, read: Dose 1 (around 90 ng/mL) and Dose 2 (around 320 ng/mL), day 14, vs vehicle-treated.

As for `CC(C)(O)C(=O)N1CC(F)(F)[C@H](NS(C)(=O)=O)[C@@H]1Cc1cccc(-c2cc(F)cc(F)c2)c1F`, in series [1] (0.1 mg/kg, oral), the Cmax result is recorded as “around 83.7 ng/mL”. Besides, the “total wakefulness time during the dark/light phase” value with OX2R [2] (setting [14]) is “did not increase”. Also, in the series with OX2R [2] (setting [15]), the “duration of NREM sleep (episode) during the light phase” value (shortened to “duration of NREM sleep”) is given as “increased”, the “duration of wakefulness (episode) during the dark phase” value (from here on “duration of wakefulness”) is on record as “increased”, the “number of episodes of NREM sleep during the light phase” value is reported as “significantly reduced” and the “number of episodes of wakefulness during the dark phase” value was “significantly reduced”. The maximum non-awakening dose with OX2R [3] (oral) is given as 0.1 mg/kg. Moreover, the “mean number of DREM episodes during the dark and light phase” value (from here on “mean number”) with OX2R [4] (setting [15]) is recorded as “significantly fewer”.
The molecule `CO[C@@H]1CN(c2ncc(F)cn2)CC[C@@H]1[C@@H]1C[C@H]2CC[C@@H](C1)N2[C@@H](C(N)=O)C1CC1` showed a plasma concentration maintained in [5] (infusion, 3 mg/mL in pump, day 14 after implantation) of 2.8 ng/mL. The Cmax result in [1] (0.1 mg/kg as printed (blood sampled after oral 0.03 mg/kg)) is given as “around 3.3 ng/mL”. The “total wakefulness time during the dark/light phase” value in the series with OX2R [2] (setting [16]) is reported as “did not increase”. In the series with OX2R [2] (setting [17]), the “duration of NREM sleep” value was “a trend for increased”, the “duration of wakefulness” value is reported as “a trend for increased”, the “number of episodes of NREM sleep during the light phase” value was “significantly reduced” and the “number of episodes of wakefulness during the dark phase” value is recorded as “significantly reduced”. This molecule also displayed a maximum non-awakening dose with OX2R [3] (subcutaneous) of 0.03 mg/kg. Also, in the series on OX2R [4] (setting [17]), the “mean number” value was “significantly fewer”.
`COC(=O)N1CCC[C@H](NS(C)(=O)=O)[C@@H]1CO[C@H]1CC[C@@H](c2ccccc2)CC1`: the “dose producing near complete wakefulness during MWT40” value with OX2R [6] (individuals with NT1, single dose) was ≥ 11.2 mg. For the same molecule, the arousal-promoting plasma concentration in the series on OX2R [6] (individuals with NT1, around average plasma exposure level at 11.2 mg) is 20 ng/mL. The “average plasma exposure level” value in series [7] is reported as 20 ng/mL. In addition, the calcium mobilization result in the series on OX2R [8] is given as “increase calcium mobilization”. Further, the “recruitment of β-arrestins” value in the series with OX2R [9] was “promote recruitment of β-arrestins”. In addition, in [1] (0.03 mg/kg, oral), the Cmax entry is on record as “around 7.2 ng/mL”. Moreover, the “total wakefulness time during the dark/light phase” value with OX2R [2] (setting [14]) is listed as “did not increase”. Also, in the series on OX2R [2] (setting [15]), the “duration of NREM sleep” value is given as “increased”, the “duration of wakefulness” value was “increased”, the “number of episodes of NREM sleep during the light phase” value was “significantly reduced” and the “number of episodes of wakefulness during the dark phase” value was “significantly reduced”. For the same molecule, the maximum non-awakening dose with OX2R [3] (subcutaneous) was determined as 0.03 mg/kg. Further, the maximum non-awakening concentration entry in the series on OX2R [10] is “about 7 ng/mL”. In addition, the “mean number” value in the series on OX2R [4] (setting [15]) was “significantly fewer”. The “duration of potent arousal (maintenance of wakefulness for more than 75% in 10 min-bins)” value in the series with OX2R [11] (dark phase, administered at ZT12) is recorded as “up to 70 min”. Also, the “duration of potent arousal (maintenance of wakefulness for more than 75% in 10 min-bins)” value with OX2R [11] (light phase, administered at ZT5) is recorded as ≤ 90 min. Moreover, the “arousal-promoting concentration (plasma)” value in the series with OX2R [11] (mice, estimated from FIG. 1 and FIG. 2, 1 mg/kg) is 20 to 40 ng/mL.
Consider `CS(=O)(=O)N[C@H]1CCCN2C(=O)COc3nccnc3[C@H]3CC[C@H](CC3)OC[C@@H]12`, for which, in series [5] (infusion, 1 mg/mL in pump, day 14 after implantation), the plasma concentration maintained is reported as 1.9 ng/mL. The Cmax result in [1] (0.03 mg/kg, oral) is listed as “around 2.9 ng/mL”. Further, the “total wakefulness time during the dark/light phase” value with OX2R [2] (setting [16]) is on record as “did not increase”. Also, in the series with OX2R [2] (setting [17]), the “duration of NREM sleep” value is “increased”, the “duration of wakefulness” value was “increased”, the “number of episodes of NREM sleep during the light phase” value is listed as “significantly reduced” and the “number of episodes of wakefulness during the dark phase” value is recorded as “significantly reduced”. In the series with OX2R [3] (oral), this molecule registered a maximum non-awakening dose of 0.03 mg/kg. Besides, the “mean number” value with OX2R [4] (setting [17]) was “significantly fewer”.
With `CC(C)(O)C(=O)N1CC[C@H](NS(C)(=O)=O)[C@@H]1Cc1cccc(-c2cc(F)cc(F)c2)c1F`, the plasma concentration maintained result in [5] (Dose 1 (7.5 mg/mL in pump), between 7 and 15 days after implantation) is “around 90 ng/mL”. The plasma concentration maintained in series [5] (Dose 2 (17.5 mg/mL in pump), between 7 and 15 days after implantation) stood at 320 ng/mL. Besides, the “plasma concentration relative to the maximum non-awakening plasma concentration” value in series [5] (Dose 2, around 320 ng/mL) is recorded as “the same”. Also, in [12] (3 mg/kg oral), the “Tmax (time of Cmax)” value was “around 1 h”. Besides, in [12] (3 mg/kg oral (non-awakening dose)), the Cmax result was “around 235 ng/mL”. For the same molecule, the “plasma concentration at 3.5 h after administration” value in [12] (10 mg/kg oral) is recorded as “around 654.7 ng/mL”. For the same molecule, the arousal effect result with OX2R [13] (3 mg/kg oral, at and around Cmax and about 1 hour before/after Tmax) was “did not induce arousal effect”. Further, in the series on OX2R [13] (10 mg/kg oral), the “duration of arousal (wakefulness for more than 75% in 1 h-bins)” value is “around 3.5 h”. Moreover, the peak plasma concentration in series [1] (1 mg/kg oral (negligible wake-promoting effects)) is on record as 371.6 ng/mL. Further, the “plasma concentration at the last time-point when it produced potent arousal” value in series [1] (10 mg/kg oral, 110 min after administration) was found to be 1128.9 ng/mL. Besides, in the series on OX2R [2] (setting [18]), the “duration of NREM sleep” value is recorded as “increased”, the “duration of wakefulness” value is given as “increased”, the “number of episodes of NREM sleep during the light phase” value was “significantly reduced” and the “number of episodes of wakefulness during the dark phase” value is “significantly reduced”. Also, the wake-promoting effects result with OX2R [3] (1 mg/kg oral) is recorded as “negligible wake-promoting effects”. Further, the “last time-point of potent arousal after administration” value in the series with OX2R [3] (10 mg/kg oral) was determined as 110 min. In the series with OX2R [3] (oral, doses 1, 3, 10 mg/kg), the “minimum effective dose to produce arousal (wakefulness for more than 75% in 10 min-bins)” value is reported as 10 mg/kg. In addition, in the series with OX2R [4] (doses at or below non-awakening plasma concentration, day 14), the “cataplexy symptoms during the dark and light phase” value is “improved”. Further, the “mean number” value with OX2R [4] (doses at or below non-awakening plasma concentration, day 14, vs vehicle-treated) is “significantly fewer”.
In the case of `COc1ccc(-c2cccc(C(=O)N(C)C)c2)cc1S(=O)(=O)Nc1cccc(NCCNC(=O)c2ccccc2N(C)C)c1`, the calcium mobilization result in the series with OX2R [8] was “increase calcium mobilization”. Besides, the “recruitment of β-arrestins” value in the series with OX2R [9] is recorded as “promote recruitment of β-arrestins”.

The record behind these values is patent US20260382570A1, “DOSING OF OREXIN TYPE 2 RECEPTOR AGONISTS” (published 2026).
